From the OPERA property sets (Mansouri et al. 2018)
In brackets after ≈: the same amount, converted by molar mass.

Details: experimental values, compiled

## NNP(=S)(NN)c1ccccc1
  solubility: 37.6 mM (≈ 7600 µg/mL)
